Read-outs that look alike come from different tables or passages of the source.
How the values were obtained:
[1] = tested on: laboratory animals; conditions: standard laboratory animal tests, cited from earlier work
[2] = tested on: male albino CF-1 mice; test: CNS identification (preliminary) test: antagonism of HCl-induced writhing; conditions: Example 7 Table 2, subcutaneous, 0.15 percent HCl i.p.
[3] = tested on: CF-1 mice; test: Maximal transpinal electroshock anti-convulsant test (absence of tonic extensor convulsion); conditions: 10 mA; for Electro-Convulsive Shock Antagonism ED50: Example 7 Table 2, subcutaneous, 0.2 sec
[4] = tested on: Female CF-1 derived Upjohn mice; test: HCl writhing analgesic test; conditions: Example 7 Table 2, SC
[5] = tested on: Female CF-1 derived Upjohn mice; test: Tail flick analgesic test; conditions: Example 7 Table 2, SC
[6] = tested on: Female CF-1 derived Upjohn mice; test: Tail pinch analgesic test; conditions: Example 7 Table 2, SC

| Compound | Analgesic activity of U-50,488 (in words) [1] | Analgesic activity of U-50,488 (in words) ([1]; listed as trans-(±)-3,4-dichloro-N-methyl-N-[2-(1-pyrrolidinyl)cyclohexyl]benzeneacetamide) | CNS Id HCl Writhing Protect ED50 [2] | Electro-Convulsive Shock Antagonism ED50 [3] | Analgesic Screens ED50, HCl Writhing [4] | Analgesic Screens ED50, Tail Flick [5] | Electroshock ED50 (95 percent confidence range) ([3]; Example 3, subcutaneous, 0.2 sec., male CF-1 mice) | Analgesic Screens ED50, Tail Pinch [6] |
| --- | --- | --- | --- | --- | --- | --- | --- | --- |
| CN(C(=O)Cc1ccc(Cl)c(Cl)c1)[C@@H]1CCCC[C@H]1N1CCCC1 (relative stereo) | significant analgesic properties | analgesically active compound | – | – | – | – | – | – |
| O=C(Cc1ccc(Cl)c(Cl)c1)N[C@@H]1CCC[C@@H]1N1CCCC1 (relative stereo) | – | – | > 50 mg/kg | 50 mg/kg | – | – | – | – |
| Cis-3,4-dichloro-N--methyl-N--[2-(1-pyrrolidinyl)-cyclopentyl]benzamide | – | – | > 50 mg/kg | 32 mg/kg | 63 mg/kg | > 100 mg/kg | 13 (9-17) mg./kg. | > 100 mg/kg |

From patent US4801604A (priority 1987, dated 1989)
